# Test results from US8735360B2 (priority 2009, dated 2014).
# Protein sequences, listed by entry. Tags and fused reporters are not part of them. Residues count along the entry.
# UniProt P25092, 24-1073 limits assumed: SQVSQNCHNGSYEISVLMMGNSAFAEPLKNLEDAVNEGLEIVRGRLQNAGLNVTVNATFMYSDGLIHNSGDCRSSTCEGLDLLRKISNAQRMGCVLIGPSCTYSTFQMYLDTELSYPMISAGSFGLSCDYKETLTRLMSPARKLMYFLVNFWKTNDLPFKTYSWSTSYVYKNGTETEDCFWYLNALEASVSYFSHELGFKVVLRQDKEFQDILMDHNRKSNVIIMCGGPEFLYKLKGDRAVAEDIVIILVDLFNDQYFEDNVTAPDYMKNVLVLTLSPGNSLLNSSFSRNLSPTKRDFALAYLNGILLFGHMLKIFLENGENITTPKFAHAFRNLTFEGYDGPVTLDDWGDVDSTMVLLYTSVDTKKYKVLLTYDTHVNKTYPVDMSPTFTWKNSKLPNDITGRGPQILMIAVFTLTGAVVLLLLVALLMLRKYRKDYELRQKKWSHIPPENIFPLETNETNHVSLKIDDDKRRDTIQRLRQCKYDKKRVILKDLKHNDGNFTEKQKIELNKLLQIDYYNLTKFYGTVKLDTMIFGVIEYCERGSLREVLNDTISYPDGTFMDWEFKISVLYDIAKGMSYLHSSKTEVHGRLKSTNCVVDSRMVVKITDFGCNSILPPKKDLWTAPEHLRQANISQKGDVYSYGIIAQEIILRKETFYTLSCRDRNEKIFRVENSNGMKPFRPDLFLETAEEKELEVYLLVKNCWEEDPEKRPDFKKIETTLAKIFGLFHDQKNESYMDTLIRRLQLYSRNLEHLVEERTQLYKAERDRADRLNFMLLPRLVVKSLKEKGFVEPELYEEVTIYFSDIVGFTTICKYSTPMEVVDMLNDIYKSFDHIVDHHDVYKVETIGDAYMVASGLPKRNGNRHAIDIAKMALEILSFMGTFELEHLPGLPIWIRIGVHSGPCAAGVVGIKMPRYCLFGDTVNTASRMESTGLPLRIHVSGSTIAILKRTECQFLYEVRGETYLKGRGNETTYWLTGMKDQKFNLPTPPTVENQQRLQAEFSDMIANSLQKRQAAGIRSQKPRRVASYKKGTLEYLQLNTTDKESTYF
# What was measured:
# GC-C [1] = target: T1, GC-C (Homo sapiens, UniProt P25092); assay type: cell-based; conditions: cGMP response in T84 cells
# GC-C [2] = target: T1, GC-C; assay type: binding
# female CD-1 mice = assay type: in vivo; conditions: oral gavage, % distance travelled by charcoal front in small intestine
Structure (SMILES),Ratio EC50 pH 8/EC50 pH 5 (GC-C [1]),Ratio Ki pH 8/Ki pH 5 (GC-C [2]),ED50 in the gastrointestinal transit assay (female CD-1 mice)
"CC(C)C[C@@H]1NC(=O)[C@H](CCC(=O)O)NC(=O)[C@@H]2CSSC[C@@H]3NC(=O)[C@H](C)NC(=O)[C@@H]4CCCN4C(=O)[C@H](CC(N)=O)NC(=O)[C@H](CSSC[C@H](NC(=O)[C@H](CC(=O)O)NC(=O)[C@H](CC(=O)O)NC(=O)CCN)C(=O)N2)NC(=O)[C@H](CSSC[C@@H](C(=O)N[C@@H](Cc2ccc(O)cc2)C(=O)O)NC(=O)CNC(=O)[C@H]([C@@H](C)O)NC3=O)NC1=O [Peptide 15, βADDCCELCCNPACTGCY]",110.2,–,–
"CC(C)C[C@@H]1NC(=O)[C@H](CCC(=O)O)NC(=O)[C@@H]2CSSC[C@@H]3NC(=O)[C@H](C)NC(=O)[C@@H]4CCCN4C(=O)[C@H](CC(N)=O)NC(=O)[C@H](CSSC[C@H](NC(=O)[C@H](CC(=O)O)NC(=O)[C@H](CC(=O)O)NC(=O)[C@@H](N)CC(=O)O)C(=O)N2)NC(=O)[C@H](CSSC[C@@H](C(=O)N[C@H](Cc2ccc(O)cc2)C(=O)O)NC(=O)CNC(=O)[C@H]([C@@H](C)O)NC3=O)NC1=O [Peptide 21, DDDCCELCCNPACTGCdY]",42.4,5.1,–
"C[C@@H]1NC(=O)[C@@H]2CCCN2C(=O)[C@H](CC(N)=O)NC(=O)[C@@H]2CSSC[C@H](NC(=O)[C@H](CC(=O)O)NC(=O)[C@H](CC(=O)O)NC(=O)[C@@H](C)N)C(=O)N[C@H]3CSSC[C@H](NC1=O)C(=O)N[C@@H]([C@@H](C)O)C(=O)NCC(=O)N[C@H](C(=O)N[C@@H](Cc1ccc(O)cc1)C(=O)O)CSSC[C@H](NC(=O)[C@H](Cc1ccc(O)cc1)NC(=O)[C@H](CCC(=O)O)NC3=O)C(=O)N2 [Peptide 10, dADDCCEYCCNPACTGCY]",76.4,3.87,13.7 µg/kg
"CC(C)C[C@@H]1NC(=O)[C@H](CCC(=O)O)NC(=O)[C@@H]2CSSC[C@@H]3NC(=O)[C@H](C)NC(=O)[C@@H]4CCCN4C(=O)[C@H](CC(N)=O)NC(=O)[C@H](CSSC[C@H](NC(=O)[C@H](CC(=O)O)NC(=O)[C@H](CC(=O)O)NC(=O)[C@@H](C)N)C(=O)N2)NC(=O)[C@H](CSSC[C@@H](C(=O)N[C@@H](Cc2ccc(O)cc2)C(=O)O)NC(=O)CNC(=O)[C@H]([C@@H](C)O)NC3=O)NC1=O [Peptide 14, dADDCCELCCNPACTGCY]",166.2,0.52,3.04 µg/kg
"C[C@@H]1NC(=O)[C@@H]2CCCN2C(=O)[C@H](CC(N)=O)NC(=O)[C@@H]2CSSC[C@H](NC(=O)[C@H](CC(=O)O)NC(=O)[C@H](CC(=O)O)NC(=O)[C@H](N)CC(=O)O)C(=O)N[C@H]3CSSC[C@H](NC1=O)C(=O)N[C@@H]([C@@H](C)O)C(=O)NCC(=O)N[C@H](C(=O)N[C@@H](Cc1ccc(O)cc1)C(=O)O)CSSC[C@H](NC(=O)[C@H](Cc1ccc(O)cc1)NC(=O)[C@H](CCC(=O)O)NC3=O)C(=O)N2 [Peptide 6, dDDDCCEYCCNPACTGCY]",146,6.59,–
"CC(C)C[C@@H]1NC(=O)[C@H](CCC(=O)O)NC(=O)[C@@H]2CSSC[C@@H]3NC(=O)[C@H](C)NC(=O)[C@@H]4CCCN4C(=O)[C@H](CC(N)=O)NC(=O)[C@H](CSSC[C@H](NC(=O)[C@H](CC(=O)O)NC(=O)[C@H](CC(=O)O)NC(=O)[C@H](N)CC(N)=O)C(=O)N2)NC(=O)[C@H](CSSC[C@@H](C(=O)N[C@@H](Cc2ccc(O)cc2)C(=O)O)NC(=O)CNC(=O)[C@H]([C@@H](C)O)NC3=O)NC1=O [Peptide 12, dNDDCCELCCNPACTGCY]",96.1,2.70,–
